Data from PubChem BioAssay AID1224863 (Southern Research Institute, 2016).
The entries are a selection whose mix differs from that of the whole data set. Activity calls are given as the source filed them.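 How the source made its calls: active means highest signal at least 8 times that of the reference protease inhibitor control at some dose; inactive means the rest.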

Chains of the proteins cited; added tags and fusions are not shown. A line that says so, or that is headed by a name, gives the form on record, which may keep a tag or linker.
UniProt P13569, with tags, fused parts or gaps F508del: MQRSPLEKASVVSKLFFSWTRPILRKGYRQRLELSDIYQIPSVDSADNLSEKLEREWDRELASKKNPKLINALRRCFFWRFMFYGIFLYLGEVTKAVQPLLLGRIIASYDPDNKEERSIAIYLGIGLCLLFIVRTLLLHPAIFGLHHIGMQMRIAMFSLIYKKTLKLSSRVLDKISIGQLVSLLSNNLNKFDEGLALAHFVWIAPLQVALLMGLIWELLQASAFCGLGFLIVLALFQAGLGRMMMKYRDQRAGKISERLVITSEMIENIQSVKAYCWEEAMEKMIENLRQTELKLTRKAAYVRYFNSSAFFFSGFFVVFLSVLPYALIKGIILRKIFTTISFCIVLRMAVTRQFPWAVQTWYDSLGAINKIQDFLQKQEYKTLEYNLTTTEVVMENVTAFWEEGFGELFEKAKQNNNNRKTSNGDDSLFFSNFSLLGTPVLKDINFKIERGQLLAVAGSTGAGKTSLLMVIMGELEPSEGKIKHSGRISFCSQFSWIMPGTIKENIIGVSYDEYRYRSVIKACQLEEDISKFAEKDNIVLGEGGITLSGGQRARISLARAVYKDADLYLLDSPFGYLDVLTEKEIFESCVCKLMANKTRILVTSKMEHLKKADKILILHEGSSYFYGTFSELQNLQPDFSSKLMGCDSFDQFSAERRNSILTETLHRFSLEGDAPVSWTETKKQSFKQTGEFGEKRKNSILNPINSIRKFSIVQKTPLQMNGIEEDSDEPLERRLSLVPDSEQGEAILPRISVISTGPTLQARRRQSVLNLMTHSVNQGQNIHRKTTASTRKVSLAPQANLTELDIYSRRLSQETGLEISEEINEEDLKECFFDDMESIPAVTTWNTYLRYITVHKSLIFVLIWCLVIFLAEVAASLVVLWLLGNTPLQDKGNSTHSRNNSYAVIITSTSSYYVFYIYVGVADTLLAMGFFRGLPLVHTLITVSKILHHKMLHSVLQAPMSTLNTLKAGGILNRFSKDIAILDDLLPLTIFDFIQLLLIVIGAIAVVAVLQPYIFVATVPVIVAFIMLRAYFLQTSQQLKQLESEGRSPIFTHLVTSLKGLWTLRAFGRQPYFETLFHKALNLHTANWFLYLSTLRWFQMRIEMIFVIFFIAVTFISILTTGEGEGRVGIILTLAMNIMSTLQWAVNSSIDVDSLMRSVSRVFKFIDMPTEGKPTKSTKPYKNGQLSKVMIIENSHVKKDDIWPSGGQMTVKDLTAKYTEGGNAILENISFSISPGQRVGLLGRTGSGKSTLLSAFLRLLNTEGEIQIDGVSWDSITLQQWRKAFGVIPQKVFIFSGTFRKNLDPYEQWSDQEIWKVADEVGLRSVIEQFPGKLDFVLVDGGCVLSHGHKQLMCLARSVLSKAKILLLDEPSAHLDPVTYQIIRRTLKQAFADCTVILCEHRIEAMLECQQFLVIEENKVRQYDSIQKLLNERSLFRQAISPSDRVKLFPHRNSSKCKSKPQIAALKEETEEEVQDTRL

target: Cystic fibrosis transmembrane conductance regulator (Homo sapiens) (UniProt P13569); assay: compounds raising F508del-CFTR protein level – cell-based, HeLa F508del-CFTR, immunofluorescence, viability, primary screen (AID 1224863); conditions: immunofluorescence total CFTR, 24 h, library dosed in µM

Row | SMILES | outcome
1 | CN(C)CCS | inactive
2 | OCCSCCO | inactive
3 | C/C1=C2N=C(/C=C3N=C(/C(C)=C4\[N-]C([C@H](CC(N)=O)[C@@]4(C)CCC(=O)NCC(C)OP(=O)([O-])O[C@@H]4[C@@H](CO)OC(n5cnc6cc(C)c(C)cc65)[C@@H]4O)C4(C)N=C1C(CCC(N)=O)C4(C)CC(N)=O)C(CCC(N)=O)C\3(C)C)C(CCC(N)=O)C/2(C)CC(N)=O.[C-]#N.[Co+3] (some centres undefined) | inactive
4 | C/C1=C2N=C(/C=C3N=C(/C(C)=C4\[N-][C@@](C)([C@@H]5N=C1[C@](C)(CCC(=O)NC[C@@H](C)OP(=O)([O-])O[C@H]1[C@@H](O)[C@@H](n6cnc7cc(C)c(C)cc76)O[C@@H]1CO)[C@H]5CC(N)=O)[C@@](C)(CC(N)=O)[C@@H]4CCC(N)=O)[C@@](C)(CC(N)=O)[C@@H]\3CCC(N)=O)C(C)(C)[C@@H]/2CCC(N)=O.[C-]#N.[Co+3] | inactive
